# Experimental data as given in patent US7718768B2, “Biologically active peptide [sequence]” (CMS Peptides Patent Holding Company Limited, priority 2001, dated 2010).
# Marks after values point to notes of the source that are not given here.
# Columns and labels:
# Assay type in all cases: in vivo, BALB/c mice
# [1] = test system: anti-SRBC antibody; test: Sheep Red Blood Cell (SRBC) hemolysis test, anti-SRBC antibody formation; conditions: SRBC on day 12, IFN-γ and IL-2 groups 3×10^5 IU/kg/day, X ± SD
# Procedure: Sheep red blood cells (SRBC) were prepared by collecting blood from cervical vein and put into a sterile flask with glass beads. The flask was shaken for 3 minutes and the blood then mixed with Alsever solution (glucose 2.05 g, NaCl 0.4 g, […] 0.8 g, adjust to 100 ml with distilled water) and stored at 4° C. Immediately before use, samples were centrifuged at 130 g, 5 minutes to collect the SRBC. The cells were washed two times by re-suspension and centrifugation in normal saline. Then the cell pellet was collected by centrifugation at 180 g for 10 minutes and re-suspended in saline to make the final working SRBC suspension, 2% (v/v).
# Complement was prepared by adding 10 volumes of fresh Cavy serum into one volume centrifuge packed SRBC, and then gently shaking for 30 minutes at 4° C. The SRBC was removed by centrifugation at 200 g for 10 minutes. 10 volumes of normal saline were added to obtain the working complement solution.
# The BALB/c mice were randomly divided into the peptide group, IFN group, IL-2 group, and saline group, 10 mice per group. The test substances were administered as described in section 1.1, plus intraperitoneal injection 0.2 ml SRBC per mouse on day 12. On the day after the last test substance administration (day 16), blood was collected from the eye canthus and left at room temperature for one hour for serum exudation. After centrifugation at 200 g for 10 minutes, the serum was diluted by 500 times with normal saline.
# To 1 ml diluted mouse serum of each mouse, 0.5 ml SRBC suspension was added. Ice cold. Then 1 ml working complement solution was added and incubated at 37° C. water bath for 10 minutes. Reactions were terminated by ice cold. Samples were then centrifuged at 200 g for 10 minutes to obtain the supernatant.
# To 1 ml of this supernatant, 3 ml Drabkin solution was added and left at room temperature for 10 minutes. OD540nm was obtained.
# Reference OD540nm was obtained by mixing 0.25 ml SRBC suspension with Drabkin solution to 4 ml and placed at room temperature for 10 minutes before OD540nm was taken. Sample serum index=(OD540nm of test sample[…]reference OD540nm)×500 3. The Effect of Peptides on the Phagocytosis Function of Mononuclear Phagocyte and the Weight of Immune Organ^[8,9].
# [2] = immunity organ weight test (thymus gland index, spleen index); conditions: IFN-γ and IL-2 groups 3×10^5 IU/kg/day, X ± SD
# Procedure: The above substances were all dissolved in 0.5 ml saline and injected intraperitoneal (i.p.) for 15 continuous days, once per day.
# One day after the last test substance administration (day 16), the liver, spleen, and thymus gland were separated and blotted dry with filter paper and weighed. The phagocytosis index α was calculated as below: α=(^3√K)(W÷WLS) key: W: body weight WLS: weight of liver plus spleen Thymus gland index(%)=(thymus weight/body weight)×100% Spleen index(%)=(spleen weight/body weight)×100%
# [3] = test system: S180 sarcoma cells; test: growth of transplanted S180 sarcoma; conditions: 3 × 10^5 IU/kg i.p. once per day
# Procedure: Intraperitoneal injection, once per day. […] Treatment of all groups with testing substance lasted for 30 days or until the animal died unless otherwise specified.
# Stock S180 sarcoma cells were incubated in DMEM/F12 medium supplemented with 10% fetal bovine serum, 37° C., 5% CO2 for 72 hrs, then washed 3-4 times with Hank's solution at room temperature. Adjust the cell concentration to 1-2×10^9 per liter with Hank's solution. […] The mice were killed by cervical vertebra dislocation. Vigorously growing and non-disrupted tumor masses were harvested and washed clean with sterile saline. The tissue was dispersed in saline to a homogenous cell suspension, in a ratio of 1 g tissue to 4 ml saline. The sarcoma bearing mice model was prepared with an injection of 0.2 ml cell suspension through the armpit. Administration of test substance treatment started as described in section Method 1.
# After the phagocytosis index study, the mice were killed by cervical vertebra dislocation. The liver, spleen, and cancer tissue were dissected, blotted dry, and weighed.
# 2.2 The Tumor Growth Inhibition Index was Calculated According to the Following Formula: Tumor growth inhibition index=(mean tumor weight of control group−mean tumor weight of treatment group)÷mean tumor weight of control group 3.
# [4] = peptide 0.5 μg/kg/day i.p. 15 days
# [5] = peptide 5 μg/kg/day i.p. 15 days
# [6] = peptide 50 μg/kg/day i.p. 15 days
# [7] = peptide 500 μg/kg/day i.p. 15 days
substance,measurement,setting,value
"IL-2: recombinant human interleukin-2, Shanghai Huaxin Biotech Inc.; positive control immunostimulant",anti-SRBC antibody formation (sample serum index),[1]; [4],71 ± 11* Unit
same,anti-SRBC antibody formation (sample serum index),[1]; [5],71 ± 11* Unit
same,anti-SRBC antibody formation (sample serum index),[1]; [6],71 ± 11* Unit
same,anti-SRBC antibody formation (sample serum index),[1]; [7],71 ± 11* Unit
same,weight of spleen (spleen index),[2]; [4],0.62 ± 0.07%
same,weight of thymus gland (thymus gland index),[2]; [4],0.14 ± 0.04%
same,weight of thymus gland (thymus gland index),[2]; [5],0.14 ± 0.04%
same,weight of spleen (spleen index),[2]; [6],0.62 ± 0.07%
same,weight of thymus gland (thymus gland index),[2]; [6],0.14 ± 0.04%
same,weight of thymus gland (thymus gland index),[2]; [7],0.14 ± 0.03%
same,Tumor weight,[3],0.69 ± 0.37 g
same,Tumor inhibition index,[3]; versus saline group,46.2%
